How the values were obtained:
A2B receptor = molecular target: T1, A2B receptor (Homo sapiens, UniProt P29275); assay: A2B receptor-mediated adenylyl cyclase activity, CHO membranes; format: biochemical
T1 sequence (P29275 1-332): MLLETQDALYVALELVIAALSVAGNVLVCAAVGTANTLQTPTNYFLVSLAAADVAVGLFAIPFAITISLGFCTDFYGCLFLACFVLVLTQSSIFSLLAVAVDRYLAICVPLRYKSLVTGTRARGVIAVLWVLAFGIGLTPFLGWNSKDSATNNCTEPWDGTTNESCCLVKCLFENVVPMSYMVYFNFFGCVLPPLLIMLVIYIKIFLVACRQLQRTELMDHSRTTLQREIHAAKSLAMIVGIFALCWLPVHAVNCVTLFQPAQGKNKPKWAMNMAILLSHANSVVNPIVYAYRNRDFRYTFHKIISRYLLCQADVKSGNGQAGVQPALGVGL

[1] = mice, autoradiography, tritiated compounds; ref Lindemalm et al. 1999; cited from earlier work

| SMILES | EC50 (A2B receptor) [µM] | uptake into the brain relative to cladribine and clofarabine [1] |
| --- | --- | --- |
| Nc1nc(Cl)nc2c1ncn2[C@H]1C[C@H](O)[C@@H](CO)O1 [cladribine, 2-chloro-2′-deoxyadenosine] | > 100 |  |
| Nc1nc(F)nc2c1ncn2[C@@H]1O[C@H](CO)[C@@H](O)[C@@H]1O [fludarabine, 2-fluoroadenine-9-β-D-arabinofuranoside] | > 100 | ~ 2.5 times |

Reference: paper PMC3831620 (Naunyn-Schmiedeberg's archives of pharmacology, 2012)
